{"source": "PubChem BioAssay AID1347041", "about": "(National Center for Advancing Translational Sciences (NCATS), 2019)", "note": "Only a part is listed here, and it is no random draw. Some salts or complexes appear as unconnected parts, following the source record. Active and inactive are the calls of the source. Rule as the data show it: active = activity change below about -30%; inconclusive = mostly about -25% to -30%; inactive = weaker than that."}
{"target": "L-lactate dehydrogenase A chain (Homo sapiens) (UniProt P00338)", "assay": "qHTS assay for inhibitors of human lactate dehydrogenase;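 also: values are at about 110 or 230 µM; plate controls were DMSO wells for no effect and wells without enzyme for full effect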", "details": "purified LDHA, NADH/diaphorase-resazurin fluorescence; stronger effect = lower value", "text": "LDH is a key glycolytic enzyme that catalyzes the final step in the glycolytic pathway, reducing pyruvate to lactate and regenerating NAD+ equivalents necessary for continued glycolysis. LDHA has been linked to the carcinogenesis and malignancy in numerous forms of cancers and many other diseases. Consequently, both pharma and academia have invested in significant research efforts to identify small molecule therapeutics. Such attempts have been stalled or abandoned due to limited success in discovering potent and drug-like inhibitors that can be utilized to validate LDHA in vivo as a drug target, a necessary step toward advancing such a molecule towards the clinic Towards this goal we designed and performed a quantitative high-throughput screening (qHTS) campaign to discover novel compounds that are potent inhibitors of LDHA enzyme activity and cancer cell line growth.\nThe assay was optimized to 1536-well plates. Briefly, 3 µL of human lactate dehydrogenase 5 (#A38558H, Meridian Life Science, Inc., Memphis, TN) in LDH assay buffer (200 mM Tris HCl pH 7.4, 100 microM EDTA and 0.01% Tween-20) was added to a black solid bottom 1536-well assay plate (Greiner Bio-One) using a BioRAPTR FRD dispenser (Beckman Coulter, Brea, CA). A 1536-well pintool dispenser outfitted with 20 nL pins (Wako Automation, San Diego, CA) was used to transfer 23 nL of DMSO-solubilized compound (both library and vehicle controls) to each 1536-well assay plate. Following compound transfer, 1 µL of substrate solution containing NADH and sodium pyruvate (Sigma-Aldrich, St. Louis, MO) in LDH assay buffer was dispensed via BioRAPTR FRD to initiate the reaction. Final concentrations in the 4 microL reaction volume were 2 nM LDHA enzyme, 0.06 mM NADH and 0.2 mM sodium pyruvate. Following a 5 minute incubation period at room temperature, 1 µL of detection reagent (C. kluyveri diaphorase (Sigma-Aldrich) and resazurin sodium salt (Sigma-Aldrich) in LDH assay buffer) was added to a total volume of 5 µL. Final concentrations of detection reagents were 0.133 mg/mL diaphorase and 37 µM resazurin. Plates were immediately transferred to a ViewLux microplate imager (PerkinElmer, Waltham, MA), and any resulting resorufin fluorescence was measured (ex540, em590 nm) at 0 and 20 minutes. Fluorescence was normalized using enzyme-free and DMSO-treated control wells on each plate."}
{"smiles": "Cc1ccc(C(=O)NCC2(N(C)C)CCCCC2)o1", "activity change": "inactive: -0.183%"}
{"smiles": "O=C(NCC1(N2CCOCC2)CCCCC1)c1c[nH]c2ccccc12", "activity change": "inactive: 4.96%"}
{"smiles": "O=[N+]([O-])c1cc([N+](=O)[O-])c(Nc2ccc(Cl)cc2)c([N+](=O)[O-])c1", "activity change": "inactive: 2.02%"}
{"smiles": "COc1ccc(C(c2nnnn2C2CCCC2)N2CCC(n3c(=O)[nH]c4ccccc43)CC2)cc1", "note": "(configuration not stated)", "activity change": "inactive: -2.82%"}
{"smiles": "CN1CCC(Nc2cccc(F)c2)CC1", "activity change": "inactive: -9.54%"}
{"smiles": "COc1ccc2c(c1O)-c1c(O)c(OC)cc3c1[C@H](C2)[N+](C)(C)CC3.O=[N+]([O-])c1cc([N+](=O)[O-])c([O-])c([N+](=O)[O-])c1[O-]", "activity change": "inactive: 7.39%"}
{"smiles": "O=C(NCC1(N2CCCCC2)CCCCC1)c1cncc(Br)c1", "activity change": "inactive: -4.55%"}
{"smiles": "COc1ccccc1C(=O)NCC1(N(C)C)CCCCC1", "activity change": "inactive: -0.161%"}
{"smiles": "O=C(OC1CN2CCC1CC2)c1ccc([N+](=O)[O-])cc1", "note": "(configuration not stated)", "activity change": "inactive: 3.51%"}
{"smiles": "CCCCn1nnnc1C(c1ccnc2ccccc12)N1CCC(n2c(=O)[nH]c3ccccc32)CC1", "note": "(configuration not stated)", "activity change": "inactive: 0.424%"}
{"smiles": "O=C(NCC1(N2CCOCC2)CCCCC1)c1cc(F)c(F)cc1Cl", "activity change": "inactive: -9.55%"}
{"smiles": "CCC(c1nnnn1C(C)(C)C)N1CCC(n2c(=O)[nH]c3ccccc32)CC1", "note": "(configuration not stated)", "activity change": "inactive: -3.97%"}
{"smiles": "COc1cc(OC)c(C(=O)NCC2(N(C)C)CCCCC2)cc1OC", "activity change": "inactive: -4.64%"}
{"smiles": "O=[N+]([O-])c1cc([N+](=O)[O-])c(OC2CCCCC2O)c([N+](=O)[O-])c1", "note": "(configuration not stated)", "activity change": "inactive: 2.86%"}
{"smiles": "CN(C)c1cccc(C(=O)NCC2(N3CCCCC3)CCCCC2)c1", "activity change": "inactive: 1.73%"}
{"smiles": "COc1ccc(CN(CCCl)CCCl)cc1Cl", "activity change": "inactive: 1.27%"}
{"smiles": "CCCCn1nnnc1C(c1ccccc1OC(F)(F)F)N1CCC(n2c(=O)[nH]c3ccccc32)CC1", "note": "(configuration not stated)", "activity change": "inactive: -1.24%"}
{"smiles": "CC(C)c1ccc(NC2CCN(C(=O)OC(C)(C)C)CC2)cc1", "activity change": "inactive: 7.05%"}
{"smiles": "CN1CCN(CCOC(=O)C(O)(c2ccccc2)c2ccccc2)CC1", "activity change": "inactive: -11.6%"}
{"smiles": "CC(C)c1ccc(C(=O)NCC2(N3CCOCC3)CCCCC2)cc1", "activity change": "inactive: -1.24%"}
{"smiles": "COc1ccc(NC2CCN(C(=O)OC(C)(C)C)CC2)cc1", "activity change": "inactive: 7.07%"}
{"smiles": "CCCCn1nnnc1C(c1cccc2ccccc12)N1CCC(n2c(=O)[nH]c3ccccc32)CC1", "note": "(configuration not stated)", "activity change": "inactive: -0.64%"}
{"smiles": "CCc1cc(C(=O)NCC2(N3CCOCC3)CCCCC2)sc1C", "activity change": "inactive: 2.07%"}
{"smiles": "COc1cc(C(=O)NCC2(N3CCCCC3)CCCCC2)ccc1OC(F)F", "activity change": "inactive: -4.9%"}
{"smiles": "O=C(NCC1(N2CCOCC2)CCCCC1)c1cc(=O)[nH]c2ccccc12", "activity change": "inactive: -3.87%"}
{"smiles": "CCCOc1cccc(C(=O)NCC2(N(C)C)CCCCC2)c1", "activity change": "inactive: -9.15%"}
{"smiles": "CCCOc1cccc(C(=O)NCC2(N3CCOCC3)CCCCC2)c1", "activity change": "inactive: -6.61%"}
{"smiles": "O=C(NCC1(N2CCCCC2)CCCCC1)c1cccc(C(F)(F)F)c1", "activity change": "inactive: -9.18%"}
{"smiles": "O=[N+]([O-])c1cc([N+](=O)[O-])c(NCC2CCS(=O)(=O)C2)c([N+](=O)[O-])c1", "note": "(configuration not stated)", "activity change": "inactive: 15.6%"}
{"smiles": "CCOc1ccc(C(=O)NCC2(N3CCOCC3)CCCCC2)cc1", "activity change": "inactive: -1.15%"}
{"smiles": "O=C(NCC1(N2CCCCC2)CCCCC1)c1cccc([N+](=O)[O-])c1", "activity change": "inactive: -8.51%"}
{"smiles": "CSc1ccc(C(=O)NCC2(N3CCOCC3)CCCCC2)cc1", "activity change": "inactive: -11.1%"}
{"smiles": "O=c1[nH]c2ccccc2n1C1CCN(C(c2ccccc2OC(F)(F)F)c2nnnn2C2CCCC2)CC1", "note": "(configuration not stated)", "activity change": "inactive: -2.39%"}
{"smiles": "N#CC1(Nc2ccccc2)CCN(CCc2ccccc2)CC1", "activity change": "inactive: -1.11%"}
{"smiles": "CCN1CCC(Nc2ccc(Cl)cc2)CC1", "activity change": "inactive: 4.97%"}
{"smiles": "O=C(NCC1(N2CCOCC2)CCCCC1)c1cc2c(s1)CCCC2", "activity change": "inactive: 1.49%"}
{"smiles": "O=C(NCC1(N2CCCCC2)CCCCC1)c1ccc(OC(F)F)cc1", "activity change": "inactive: -5.7%"}
{"smiles": "CC(C)(C)n1nnnc1C(c1ccccc1OC(F)(F)F)N1CCC(n2c(=O)[nH]c3ccccc32)CC1", "note": "(configuration not stated)", "activity change": "inactive: 1.2%"}
{"smiles": "Brc1ccc(NC2CCN(Cc3cccc(Br)c3)CC2)cc1", "activity change": "inactive: 5.53%"}
{"smiles": "CC(C)(C)n1nnnc1C(c1cccc2ccccc12)N1CCC(n2c(=O)[nH]c3ccccc32)CC1", "note": "(configuration not stated)", "activity change": "inactive: -14.5%"}
{"smiles": "O=C(NCC1(N2CCOCC2)CCCCC1)c1ccccc1", "activity change": "inactive: -11.1%"}
{"smiles": "Cc1cc(N(CCCl)CCCl)ccc1C=O", "activity change": "inactive: -2.53%"}
{"smiles": "O=c1[nH]c2ccccc2n1C1CCN(C(c2ccccc2)c2nnnn2C2CCCC2)CC1", "note": "(configuration not stated)", "activity change": "inactive: -3.87%"}
{"smiles": "CCCN1CCC(Nc2cc(OC)cc(OC)c2)CC1", "activity change": "inactive: 24.3%"}
{"smiles": "c1ccc(CN2CCC(Nc3ccccc3)CC2)cc1", "activity change": "inactive: -1.94%"}
{"smiles": "CN(C)C1(CNC(=O)c2cccc(C#N)c2)CCCCC1", "activity change": "inactive: -4.18%"}
{"smiles": "CCOC(=O)C(CC)C1=NC(C)(C)Cc2ccccc21.O=[N+]([O-])c1cc([N+](=O)[O-])c(O)c([N+](=O)[O-])c1", "note": "(configuration not stated)", "activity change": "inactive: -4.95%"}
